By UniProt entry, the sequences of proteins in these tests, tags left out. Where a name states a change or a piece, a line headed by the entry shows the natural chain unless it says otherwise.
UniProt Q9Y5N1: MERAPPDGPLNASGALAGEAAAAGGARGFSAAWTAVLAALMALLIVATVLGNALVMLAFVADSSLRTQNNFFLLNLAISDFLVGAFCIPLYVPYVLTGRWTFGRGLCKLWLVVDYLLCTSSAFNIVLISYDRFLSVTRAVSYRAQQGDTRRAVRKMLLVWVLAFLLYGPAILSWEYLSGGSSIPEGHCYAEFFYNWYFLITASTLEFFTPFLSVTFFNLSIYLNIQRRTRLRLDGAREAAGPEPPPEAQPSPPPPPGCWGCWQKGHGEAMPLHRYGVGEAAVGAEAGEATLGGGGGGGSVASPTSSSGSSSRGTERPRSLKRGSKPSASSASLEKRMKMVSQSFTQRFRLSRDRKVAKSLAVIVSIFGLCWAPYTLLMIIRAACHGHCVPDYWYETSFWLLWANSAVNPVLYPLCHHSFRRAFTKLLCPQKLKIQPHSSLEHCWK

According to ChEMBL document CHEMBL1145842, “A selective human H(4)-receptor agonist: (-)-2-cyano-1-methyl-3-[(2R,5R)-5- [1H-imidazol-4(5)-yl]tetrahydrofuran-2-y] methylguanidine” (J Med Chem, 2003):

Tests used:
[1] = molecular target: T1, Histamine H3 receptor (Homo sapiens, UniProt Q9Y5N1); assay: Inhibition of the forskolin-stimulated cAMP production in SK-N-MC cells expressing human Histamine H3 receptor; type: functional, cell-based
[2] = molecular target: T1, Histamine H3 receptor; assay: Histamine H3 receptor competition binding using [3H]Na-methylhistamine
Procedure, shortened: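 Homogenates of SK-N-MC cells stably expressing human H3 receptor, in 50 mM Na2HPO4 pH 7.4, incubated 1 h at 37 °C with 1.0 nM [3H]Nα-methylhistamine with or without competitor. Filtration through GF/C filters pretreated with 0.3% polyethylenimine, three washes with ice-cold 25 mM Tris-HCl, 145 mM NaCl pH 7.4, then scintillation counting.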

Row | Structure (SMILES) | EC50 [1] | Ki [2]
1 | C/N=C(\NC#N)NC[C@@H]1CC[C@H](c2c[nH]cn2)O1 (single isomer, unassigned) | 10.2 µM | 7.08 µM
2 | C/N=C(\NC#N)NC[C@H]1CC[C@@H](c2c[nH]cn2)O1 (single isomer, unassigned) |  | 8.13 µM
3 | C/N=C(\NC#N)NC[C@H]1CC[C@H](c2c[nH]cn2)O1 | 3.16 µM | 2.19 µM
4 | C/N=C(\NC#N)NC[C@@H]1CC[C@@H](c2c[nH]cn2)O1 | > 100 µM | 18.6 µM
